Laboratory results published in PubChem BioAssay AID862 (The Scripps Research Institute Molecular Screening Center, 2007).
This is a selection; strong and weak results do not stand in their true shares. Some results for these compounds are left out of this collection, so the calls shown say nothing about other tests. Calls of active or inactive are those of the source.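 How the source made its calls: active means inhibition above the mean inhibition across all screened compounds plus 3 SD (cut at about 44% in these data); inactive means the rest.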

experiment: blockers of STAT3 transcriptional signaling – U3A cells, luciferase, luminescence, MLSCN library, primary screen (AID 862); details: IL-6 STAT3-luciferase reporter, at 5.5 µM, active compounds read high, host cell line lacks STAT1;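 further: 0% = DMSO only wells and 100% = 100 µM nifuroxazide control wells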

Structure (SMILES) | inhibition
O=C(OC1CN2CCC1CC2)C(CO)(c1ccccc1)c1ccccc1 (centres undefined) | inactive: 5.1%
CN(C)c1cccc(C(=O)NCC2(N(C)C)CCCCC2)c1 | inactive: 4.6%
COc1cccc(C(=O)NCC2(N3CCCCC3)CCCCC2)c1 | inactive: 0.4%
Cc1ccccc1C(=O)NCC1(N2CCCCC2)CCCCC1 | inactive: -3.7%
CN(C)C1CCCC1OC(=O)C(O)(c1ccccc1)c1ccccc1 (centres undefined) | inactive: 5.3%
CCN1CCCC(OC(=O)C2(O)c3ccccc3C=Cc3ccccc32)C1 (centres undefined) | inactive: -13%
C=CCN1CCN(CCOC(=O)C(O)(c2ccccc2)c2ccccc2)CC1 | inactive: -1.6%
O=C(NCC1(N2CCCCC2)CCCCC1)c1cc([N+](=O)[O-])ccc1Cl | inactive: 5.3%
CC(C)N1C(=O)CC2(CCN(CCOC(=O)C(O)(c3ccccc3)c3ccccc3)CC2)C1=O | inactive: 8.1%
